The target of the assay is T1, Relaxin receptor 1 (Homo sapiens) (UniProt Q9HBX9).
T1 sequence (whole entry): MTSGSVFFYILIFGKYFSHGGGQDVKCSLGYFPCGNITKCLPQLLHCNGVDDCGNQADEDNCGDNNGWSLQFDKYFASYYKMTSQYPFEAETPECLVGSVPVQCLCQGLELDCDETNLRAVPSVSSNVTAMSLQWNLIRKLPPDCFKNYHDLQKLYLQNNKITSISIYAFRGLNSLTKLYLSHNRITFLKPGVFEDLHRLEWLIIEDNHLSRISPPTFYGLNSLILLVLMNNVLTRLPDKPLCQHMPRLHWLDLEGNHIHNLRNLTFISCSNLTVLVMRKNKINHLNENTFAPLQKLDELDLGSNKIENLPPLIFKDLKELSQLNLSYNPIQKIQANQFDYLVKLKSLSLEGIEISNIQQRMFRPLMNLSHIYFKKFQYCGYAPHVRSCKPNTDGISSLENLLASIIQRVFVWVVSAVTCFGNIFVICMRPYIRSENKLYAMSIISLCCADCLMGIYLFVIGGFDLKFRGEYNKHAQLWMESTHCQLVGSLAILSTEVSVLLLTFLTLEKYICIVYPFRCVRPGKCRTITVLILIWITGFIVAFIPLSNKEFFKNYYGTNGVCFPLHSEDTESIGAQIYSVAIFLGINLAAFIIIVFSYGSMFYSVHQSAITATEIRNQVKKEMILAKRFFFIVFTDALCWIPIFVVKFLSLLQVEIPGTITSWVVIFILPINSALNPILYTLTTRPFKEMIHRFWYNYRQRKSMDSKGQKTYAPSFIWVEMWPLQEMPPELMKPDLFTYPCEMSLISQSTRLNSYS
Format: functional, cell-based. The note with it: HEK293.

`CC(C)Oc1ccccc1C(=O)Nc1ccccc1C(=O)Nc1cccc(S(=O)(=O)C(F)(F)F)c1` gave an Efficacy of 98%.

Source of the values: ChEMBL document CHEMBL4152336, “Optimization of the first small-molecule relaxin/insulin-like family peptide receptor (RXFP1) agonists: Activation results in an antifibrotic gene expression profile” (Eur J Med Chem, 2018).
